pIC50: −log10 of the molar value.
Target: wild-type PRC2 enzyme (EZH2 WT) (Homo sapiens, UniProt Q15910)
Assay: PRC2 enzyme assay on peptide substrate, wild-type EZH2
Details: read-out: EZH2 WT IC50, H3K27me0 peptide substrate

By UniProt entry, the sequences of proteins in these tests, tags left out.
UniProt Q15910, whole entry: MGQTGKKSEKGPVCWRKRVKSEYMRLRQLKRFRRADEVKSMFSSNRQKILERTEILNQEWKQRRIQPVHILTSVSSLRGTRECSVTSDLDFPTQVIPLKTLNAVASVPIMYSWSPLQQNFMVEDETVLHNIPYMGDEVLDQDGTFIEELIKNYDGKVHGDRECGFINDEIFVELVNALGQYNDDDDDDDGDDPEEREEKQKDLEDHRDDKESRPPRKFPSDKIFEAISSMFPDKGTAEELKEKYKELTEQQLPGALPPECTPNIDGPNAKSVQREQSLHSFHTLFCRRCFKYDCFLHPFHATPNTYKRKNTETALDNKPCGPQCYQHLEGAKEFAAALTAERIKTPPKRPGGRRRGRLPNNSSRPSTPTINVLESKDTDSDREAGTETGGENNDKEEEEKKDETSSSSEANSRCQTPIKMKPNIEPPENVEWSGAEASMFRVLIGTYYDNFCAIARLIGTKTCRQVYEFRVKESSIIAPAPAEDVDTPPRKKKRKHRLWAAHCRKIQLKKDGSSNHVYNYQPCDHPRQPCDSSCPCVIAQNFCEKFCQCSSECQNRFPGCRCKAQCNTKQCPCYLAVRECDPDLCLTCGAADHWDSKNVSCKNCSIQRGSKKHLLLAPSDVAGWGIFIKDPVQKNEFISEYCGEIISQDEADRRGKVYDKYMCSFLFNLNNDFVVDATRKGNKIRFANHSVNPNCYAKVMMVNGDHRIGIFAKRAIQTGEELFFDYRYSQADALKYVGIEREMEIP
UniProt Q15022, whole entry partner: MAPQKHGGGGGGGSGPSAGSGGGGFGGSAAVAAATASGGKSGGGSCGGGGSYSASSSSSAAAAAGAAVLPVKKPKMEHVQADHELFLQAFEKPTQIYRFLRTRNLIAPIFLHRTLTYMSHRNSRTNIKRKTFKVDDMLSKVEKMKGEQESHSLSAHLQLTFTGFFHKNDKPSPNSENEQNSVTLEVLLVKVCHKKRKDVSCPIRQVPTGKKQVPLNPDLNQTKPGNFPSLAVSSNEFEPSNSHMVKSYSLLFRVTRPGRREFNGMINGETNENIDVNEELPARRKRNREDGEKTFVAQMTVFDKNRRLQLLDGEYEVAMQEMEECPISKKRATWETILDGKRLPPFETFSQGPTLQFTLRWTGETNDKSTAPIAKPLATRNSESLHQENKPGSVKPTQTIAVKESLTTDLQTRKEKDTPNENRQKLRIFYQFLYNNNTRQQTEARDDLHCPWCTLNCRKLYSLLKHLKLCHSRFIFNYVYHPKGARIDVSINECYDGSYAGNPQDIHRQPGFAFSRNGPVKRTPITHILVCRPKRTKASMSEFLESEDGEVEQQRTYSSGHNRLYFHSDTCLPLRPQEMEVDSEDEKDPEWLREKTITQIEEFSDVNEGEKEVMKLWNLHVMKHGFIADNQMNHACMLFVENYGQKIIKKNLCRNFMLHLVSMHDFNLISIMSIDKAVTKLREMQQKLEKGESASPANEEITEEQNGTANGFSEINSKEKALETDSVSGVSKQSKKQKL
UniProt O75530, whole entry partner: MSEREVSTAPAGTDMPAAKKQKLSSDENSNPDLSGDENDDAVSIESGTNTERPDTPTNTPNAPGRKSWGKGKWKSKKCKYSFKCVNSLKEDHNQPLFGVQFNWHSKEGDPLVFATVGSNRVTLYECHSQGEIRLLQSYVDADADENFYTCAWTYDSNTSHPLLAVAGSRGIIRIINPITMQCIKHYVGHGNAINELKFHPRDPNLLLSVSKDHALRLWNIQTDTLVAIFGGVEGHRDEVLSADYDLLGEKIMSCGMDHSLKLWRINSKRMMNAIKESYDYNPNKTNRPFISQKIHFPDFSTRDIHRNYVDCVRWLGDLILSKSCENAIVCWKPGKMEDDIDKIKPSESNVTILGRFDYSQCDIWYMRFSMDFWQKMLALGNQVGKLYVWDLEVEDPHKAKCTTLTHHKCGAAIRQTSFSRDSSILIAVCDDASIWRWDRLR
UniProt Q09028, whole entry partner: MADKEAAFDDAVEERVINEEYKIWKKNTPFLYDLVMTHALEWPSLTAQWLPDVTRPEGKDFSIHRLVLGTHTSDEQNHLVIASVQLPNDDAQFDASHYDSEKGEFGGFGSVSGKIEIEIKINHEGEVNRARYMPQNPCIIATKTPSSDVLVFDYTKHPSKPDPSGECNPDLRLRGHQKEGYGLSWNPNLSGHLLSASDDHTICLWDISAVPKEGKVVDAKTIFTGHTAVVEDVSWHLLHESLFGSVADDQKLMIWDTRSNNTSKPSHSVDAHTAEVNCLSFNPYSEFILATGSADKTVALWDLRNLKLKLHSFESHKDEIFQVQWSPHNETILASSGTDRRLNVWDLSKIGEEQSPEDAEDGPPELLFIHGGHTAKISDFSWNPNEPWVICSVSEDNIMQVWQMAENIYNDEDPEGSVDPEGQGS

Row | SMILES | pIC50
1 | CCC(C)n1cc(C)c2c(C(=O)NCc3c(OC)[nH]c(C)cc3=O)cc(-c3ccc(N4CCNCC4)nc3)cc21 (stereo not drawn) | 6.00 to 7.00
2 | COc1[nH]c(C)cc(=O)c1CNC(=O)c1c(C)n(C(C)C2CCOCC2)c2ccccc12 (stereo not drawn) | 5.00 to 6.00
3 | Cc1cc(=O)c(CNC(=O)c2c(C)n(C(C)C3CCOCC3)c3ccccc23)c(Cl)[nH]1 (stereo not drawn) | 4.30 to 5.00

Source: US20200361914A1, “SUBSTITUTED BENZENE AND 6,5-FUSED BICYCLIC HETEROARYL COMPOUNDS” (Epizyme, Inc., priority 2014, published 2020)
